The values below come from PubChem BioAssay AID504357 (The Scripps Research Institute Molecular Screening Center, 2011).

The chains behind the UniProt entries cited, without tags or fusion partners.
UniProt P35372, whole entry, looked up: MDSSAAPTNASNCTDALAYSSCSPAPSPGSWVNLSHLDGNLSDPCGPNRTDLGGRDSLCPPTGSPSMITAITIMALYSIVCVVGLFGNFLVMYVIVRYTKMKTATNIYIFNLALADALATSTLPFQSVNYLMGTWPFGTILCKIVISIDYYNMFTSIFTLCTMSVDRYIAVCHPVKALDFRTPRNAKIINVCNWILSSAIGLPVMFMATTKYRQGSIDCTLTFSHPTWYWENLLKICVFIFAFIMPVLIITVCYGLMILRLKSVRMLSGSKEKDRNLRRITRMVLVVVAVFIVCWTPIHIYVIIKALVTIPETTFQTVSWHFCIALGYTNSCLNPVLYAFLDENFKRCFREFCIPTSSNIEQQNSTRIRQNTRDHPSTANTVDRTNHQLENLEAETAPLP
UniProt P41143, whole entry, looked up: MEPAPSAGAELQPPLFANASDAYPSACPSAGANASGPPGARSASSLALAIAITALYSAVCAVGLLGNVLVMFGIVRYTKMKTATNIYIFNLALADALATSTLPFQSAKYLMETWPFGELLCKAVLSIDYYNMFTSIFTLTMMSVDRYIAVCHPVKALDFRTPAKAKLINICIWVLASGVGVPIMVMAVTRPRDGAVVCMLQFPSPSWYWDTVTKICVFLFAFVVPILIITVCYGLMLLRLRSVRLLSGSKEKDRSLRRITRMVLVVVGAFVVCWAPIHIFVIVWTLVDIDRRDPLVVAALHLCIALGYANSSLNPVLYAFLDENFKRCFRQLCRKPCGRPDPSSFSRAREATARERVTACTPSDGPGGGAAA

Usually inhibition stands for the change of the read-out against control, counted positive when it falls.

This is a selection; strong and weak results do not stand in their true shares. Calls of active or inactive are those of the source. Rule as the data show it: active = inhibition above about 22% (passing the limit was not always enough); inactive = the rest.

The target of this test is Mu-type opioid receptor (Homo sapiens) + Delta-type opioid receptor (Homo sapiens) (UniProt P35372+P41143). Nature of the test: OPRM1-OPRD1 heterodimer inverse agonism – cell-based, luminescence, primary screen (AID 504357).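 Also: 0% = cells with DMSO and 100% = wells without cells with DMSO.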 To be noted: cell-based MOR-DOR heterodimer luminescence, at 9.3 µM, active compounds read high.
`CCc1nc2ccccc2n1CC(=O)N(C(C)CC)C1CCS(=O)(=O)C1` (stereo not drawn): the inhibition was inactive: 9.69%.
The value for `CN1CCC(N(C)c2ncnc3ccc(Br)cc23)CC1` was inactive: 13.9%; that for `Cn1c(=O)c2c(ncn2CC(=O)N2CCN(c3ccc([N+](=O)[O-])cc3)CC2)n(C)c1=O` was inactive: 10.6%.
The same measure for `CCN(CC)CCn1c(NCc2cccc(OC)c2OC)nc2ccccc21`: inactive: 18.3%; for `NNC(=O)Cn1c(SCc2ccccc2)nc2ccccc21`: inactive: -15%; for `CC(C)=N/N=C(\N)N[N+](=O)[O-]`: inactive: 8.03%.
Regarding `COC(=O)[C@H](Cc1ccc(O)cc1)NC(=O)Cn1cnc2c(NCc3ccccc3)ncnc21`, the inhibition was inactive: 16.5%.
On to `Cn1c(=O)n(CC(=O)N2CCN(c3nnc(-c4ccccc4)c4ccccc34)CC2)c2ccccc21`, for which the inhibition is inactive: 14.4%.
The value for `CCOC(=O)c1c(NC(=O)Cn2c(C)nc3ccccc32)sc2c1CCC2` was inactive: 5.12%; that for `COc1ccc(/C([O-])=C(/C(=S)Nc2ccc(C)c(C)c2)n2c[n+](C)c3ccccc32)cc1OC` was inactive: 25.2%.
As to `CCN(/C(=N/P(=O)(N1CCOCC1)N1CCOCC1)N1CCOCC1)c1ccc(OC)cc1`, the inhibition is inactive: 14.3%.
Consider `O=C(Nc1ccc2c(c1)nc1n2CCN(Cc2ccccc2)C1)NC1CCCCC1`, for which the inhibition was inactive: 12.8%.
The same measure for `CC(C)C[C@H](NC(=O)N1CCn2c1nc1ccccc12)C(=O)NC1CCCCC1`: inactive: 2.51%; for `C[N+]1=C2C=CC=CC=C2SC12C([N+](=O)[O-])=CC([N+](=O)[O-])=C[C-]2[N+](=O)[O-]` (stereo not drawn): inactive: 2.37%; for `COc1ccc(-c2ccc3c(c2)[C@@H]2C[C@H](N(C)C(=O)Nc4ccccc4)[C@H]([C@H](C)O)C(=O)N2CC3)cc1`: inactive: 10.8%.
For `Cc1nc2ccccc2n1CC(=O)NC(C)C1CC2CCC1C2` (stereo not drawn), the inhibition is inactive: -6.15%.
The value for `CCc1ccc(C(C)NC(=O)Cn2cnc3c(=O)n(C)c(=O)n(C)c32)cc1` (stereo not drawn) was inactive: 14.8%; that for `Cc1ccc(-c2nnc(N3CCN(C(=O)Cn4c(=O)n(C)c5ccccc54)CC3)c3ccccc23)cc1` was inactive: 1.62%.
On to `COc1ccc2nc(NC(=O)Cn3cnc4c(=O)n(C)c(=O)n(C)c43)sc2c1`, for which the inhibition was inactive: -0.87%.
Turning to `CCC(=O)Nc1ccc(NC(=S)NC(=O)/C=C/c2ccccc2)cc1`, the inhibition was inactive: 10.3%.
Regarding `FC(F)(F)c1ccc2c(c1)nnn2C1CCN(Cc2nnnn2Cc2ccccc2)CC1`, the inhibition was inactive: -13.1%.
`CCC(CC)NC(=O)Cn1c(C(C)NC(C)=O)nc2ccccc21` (stereo not drawn): the inhibition was inactive: -1.95%.
The value for `c1ccc(CCn2nnnc2CN2CCC(n3nnc4ccccc43)CC2)cc1` was inactive: 7.49%; that for `C[C@H](NC(=O)N1CCn2c1nc1ccccc12)C(=O)NC1CCCCC1` was inactive: 8.62%; that for `COCC(=O)N(C)[C@H]1C[C@H]2c3cc(N4CCN(C)CC4)ccc3CCN2C(=O)[C@H]1[C@H](C)O` was inactive: 4.02%.
`Nc1ccc([As](=O)(O)c2ccc(N)cc2)cc1`: the inhibition was inactive: 4.11%.
As for `CCSc1nnc(NC(=O)Cn2cnc3c2c(=O)n(C)c(=O)n3C)s1`, the inhibition was inactive: 14.2%.
As to `COc1ccc(CNc2nc3ccccc3n2CCN2CCCCC2)c(OC)c1`, the inhibition was inactive: 13%.
On to `c1ccc(CN2CCC3(CC2)Nc2ccccc2S3)cc1`, for which the inhibition is inactive: -21.6%.
The value for `COc1ccccc1CNc1nc2ccccc2n1CCN1CCCCC1` was inactive: -2.51%; that for `COc1ccc(N2CCn3c2nc2c3c(=O)n(CCCc3ccccc3)c(=O)n2C)c(OC)c1` was inactive: -9.47%; that for `Cc1ccc(CNC(=O)CCNC(=O)N2CCn3c2nc2ccccc23)cc1` was inactive: 12.4%.
Turning to `Cn1c(=O)[nH]c(=O)c2c1nc(CN1CCN(c3ccccc3F)CC1)n2CC(N)=O`, the inhibition is inactive: 9.27%.
Regarding `Cc1nc2cc(C(F)(F)F)ccc2n1C1CCN(Cc2nnnn2Cc2ccc3c(c2)OCO3)CC1`, the inhibition is inactive: 7.42%.
For the compound `CC1CN(Cc2nc3c(c(=O)[nH]c(=O)n3C)n2CC(N)=O)CC(C)O1` (stereo not drawn), the inhibition is inactive: 4.65%.
The value for `C=CCc1cccc(CNc2nc3ccccc3n2CCN2CCOCC2)c1O` was inactive: 14.1%; that for `Cc1cc(C)c(CN2CCN(C(=O)Cn3cnc4c(OCc5ccccc5)ncnc43)CC2)c(C)c1` was inactive: -28.8%.
Consider `COc1ccc(Cc2nc3ccccc3n2CC(=O)N/N=C/c2ccccc2)cc1OC`, for which the inhibition is inactive: 1.42%.
The same measure for `O=C(c1ccco1)N1CCn2c1nc1ccccc12`: inactive: 20.9%.
Regarding `O=C(Nc1cc([As](=O)(O)O)ccc1O)c1ccccc1`, the inhibition was inactive: 7.75%.
The same measure for `Cn1c(=O)n(CC(=O)Nc2ccccc2)c2ccccc21`: inactive: 8.55%; for `Cc1ccc2c(c1)[C@@H]1CN(C)CC[C@@H]1N2S(=O)(=O)c1ccc(F)cc1`: inactive: 4.88%.
The value for `Cn1c(=O)[nH]c(=O)c2c1nc(SCc1ccccc1Cl)n2CC(N)=O` was inactive: 15.4%; that for `COc1ccc(CNC(=O)Cn2cnc3c(=O)n(C)c(=O)n(C)c32)cc1` was inactive: 8.32%.
Consider `COc1ccccc1NS(=O)(=O)c1cc(NC(=O)Cn2cnc3c2c(=O)n(C)c(=O)n3C)ccc1C`, for which the inhibition is inactive: -3.46%.
For `Cn1c(=O)c2ncn(CC(=O)NC3CCCCCC3)c2n(C)c1=O`, the inhibition was inactive: 9.36%.
Turning to `CC(C)[C@H](NC(=O)N1CCn2c1nc1ccccc12)C(=O)NCc1ccc2c(c1)OCO2`, the inhibition was inactive: 11.2%.
`Cn1c(=O)n(Cc2ccc(Cl)cc2)c(=O)c2c1nc1n2CCN1Cc1ccco1`: the inhibition was inactive: -5.47%.
For the compound `O=C(Cn1cnc2ccccc21)NCCCN1CCOCC1`, the inhibition is inactive: 7.06%.
Turning to `CC(C)[C@H](NC(=O)N1CCn2c1nc1ccccc12)C(=O)N[C@H](C(=O)O)c1ccccc1`, the inhibition was inactive: 10.8%.
For `CSc1nc(N)nc2c1ncn2CC(=O)N[C@H](CO)Cc1c[nH]c2ccccc12`, the inhibition is inactive: 13.2%.
For `Cc1ccc2c(c1)C1CN(C)CCC1N2C(=O)c1cccnc1Cl` (stereo not drawn), the inhibition is inactive: 2.35%.
For the compound `O=[N+]([O-])c1ccccc1NC1CCN(Cc2ccccc2)CC1`, the inhibition was inactive: 2.81%.
As to `O=P1(N(CCCl)CCCl)OCCCS1` (stereo not drawn), the inhibition is inactive: 8.6%.
Consider `Cc1ccc2c(c1)C1CN(C)CCC1N2C(=O)Nc1ccc(Cl)cc1` (stereo not drawn), for which the inhibition was inactive: -20.1%.
For `CCN(CC)CCn1c(=N)n(CC(O)c2ccco2)c2ccccc21` (stereo not drawn), the inhibition is inactive: 8.86%.
The same measure for `CC(C)Oc1cccnc1N(C)C1CCN(Cc2ccccc2)CC1`: inactive: 4.69%; for `COc1ccc(Cc2nnc(NC(=O)Cn3cnc4c3c(=O)n(C)c(=O)n4C)s2)cc1`: inactive: 8.5%; for `COCCCNC(=O)Cn1cnc2c(OCc3ccccc3)ncnc21`: inactive: 13.5%.
Turning to `CCOC(=O)Nc1ccc2c(c1)nc1n2CCN(CCOC)C1`, the inhibition was inactive: 9.07%.
`Cc1ccc2c(c1)C1CN(C)CCC1N2CC(=O)N(C)c1ccccc1` (stereo not drawn): the inhibition was inactive: 4.19%.
Take `N#CCC(=O)N/N=C\c1ccccc1OC/C=C/c1ccccc1`: the inhibition is inactive: -6.96%.
For the compound `O=C(CCCN1CCC2(CC1)C(=O)NCN2c1ccccc1)c1ccc(F)cc1`, the inhibition is inactive: -12.6%.
`Cn1c(=O)c2c(nc(CN3CCN(c4ccc(F)cc4)CC3)n2CCN2CCOCC2)n(C)c1=O`: the inhibition is inactive: 9.36%.
On to `COc1cc(NC(=O)Cn2c(-c3cncs3)nc3ccccc32)cc(OC)c1OC`, for which the inhibition was inactive: 7.58%.
The same measure for `Cc1ccc(-c2csc(N3CCN(c4cc5c(cc4Cl)nc(C)n5CCN4CCCCC4)CC3)n2)cc1`: inactive: -4.86%.
Consider `Cc1cc(NC(=O)CSc2nc3ccccc3n2CC(=O)N2CCCCC2)no1`, for which the inhibition was inactive: 2.06%.
The value for `COC(=O)C[C@H](NC(=O)Cn1cnc2c(SC)nc(N)nc21)C(=O)OC` was inactive: 12.9%; that for `Cn1c(=O)c2c(nc(NCCc3ccccc3)n2CC(=O)NCCc2ccccc2)n(C)c1=O` was inactive: -0.8%; that for `O=C(O)CNc1ccc([As](=O)(O)O)cc1` was inactive: 11.8%.
With `Cc1cccc(NC(=O)Cn2c(/C=C/c3ccccc3)nc3ccccc32)c1`, the inhibition is inactive: -1.95%.
For the compound `O=C(c1ccccc1Br)N1CCn2c1nc1ccccc12`, the inhibition is inactive: 11.9%.
For the compound `CCc1nc2ccccc2n1CC(=O)NC1CCS(=O)(=O)C1` (stereo not drawn), the inhibition is inactive: 10.3%.
For the compound `COc1cccc(NC(=O)Cn2c(-c3cncs3)nc3ccccc32)c1`, the inhibition is inactive: 8.9%.
For the compound `COc1cccc(CNC(=O)CCNC(=O)N2CCn3c2nc2ccccc23)c1`, the inhibition is inactive: 11.3%.
On to `O=C1CCC(=O)N1c1ccc(NC2CCN(Cc3ccccc3)CC2)c([N+](=O)[O-])c1`, for which the inhibition is inactive: 14.5%.
For `COC(=O)c1ccc(N2C(=O)CC(N3CCC(n4c(=O)[nH]c5ccccc54)CC3)C2=O)cc1` (stereo not drawn), the inhibition is inactive: 4.21%.
The same measure for `CN(C)C1(c2nnnn2-c2ccc(Cl)cc2)CCCCC1`: inactive: -8.2%.
The same measure for `O=C(Cn1cnc2ccccc21)N1CCN(S(=O)(=O)c2ccccc2)CC1`: inactive: 9.28%; for `CCOC(=O)N1CCN(c2c(NC3CCN(Cc4ccccc4)CC3)c(=O)c2=O)CC1`: inactive: 0.41%; for `CC(C)Sc1nc2ccccc2n1CC(N)=O`: inactive: 15.1%.
For `Cc1noc(C)c1S(=O)(=O)N(CC(=O)N1CCn2c1nc1ccccc12)c1ccc(C(C)C)cc1`, the inhibition was inactive: 0.47%.
Regarding `O=[N+]([O-])c1ccc(NC2CCN(Cc3ccccc3)CC2)c2ccncc12`, the inhibition was inactive: -16.4%.
As for `Cc1nn(CC(=O)Nc2ccc3c(c2)nc2n3CCN(C3CCCCC3)C2)c(=O)c2ccccc12`, the inhibition was inactive: 5.59%.
In the case of `COc1ccc(Cc2nc3ccccc3n2CC(=O)N/N=C/c2ccc(O)cc2)cc1OC`, the inhibition is inactive: 5.17%.
As to `COC(=O)C1(C)COP(=O)(Nc2ccccc2)OC1` (stereo not drawn), the inhibition was inactive: 13.6%.
Turning to `O=[N+]([O-])c1cccc(NC2=NCC(CBr)S2)c1` (stereo not drawn), the inhibition was inactive: 18.9%.
The same measure for `CSc1nc(N)nc2c1ncn2CC(=O)N1CCN(c2ccccn2)CC1`: inactive: 8.97%.
